# Tests used:
# LUHMES and dLUHMES cells = details: 24 h exposure, 0.78 to 100 µM; for cytotoxic sensitivity ([ATP] IC50) of LUHMES and/or dLUHMES relative to the other cell lines: vs SH-SY5Y/dSH-SY5Y and NSC/dNSC; for relative cytotoxic sensitivity of LUHMES versus dLUHMES cells: [ATP]
# SH-SY5Y = details: cited from earlier work
# [1] = test system: SH-SY5Y and dSH-SY5Y cells; details: 24 h exposure, [ATP], 0.78 to 100 µM
# [2] = test system: Caspase 3/7 activity in NSC and dNSC cells; assay type: cell-based, human
# NSC and dNSC cells = details: 24 h exposure, [ATP], 0.78 to 100 µM
compound,measurement,setting,value
"O=c1c(-c2ccc(O)cc2)coc2cc(O)cc(O)c12 [GEN, Genistein]",cytotoxic sensitivity ([ATP] IC50) of LUHMES and/or dLUHMES relative to the other cell lines,LUHMES and dLUHMES cells,more sensitive than the other cell lines
same,relative cytotoxic sensitivity of LUHMES versus dLUHMES cells,LUHMES and dLUHMES cells,LUHMES cells were more sensitive than dLUHMES cells
same,In vitro neural selectivity (effect reported in SH-SY5Y),SH-SY5Y,"Apoptotic in SHSY5Y ([Karmakar et al., 2009])"
"Oc1c(Cl)cc(Cl)c(Cl)c1Cc1c(O)c(Cl)cc(Cl)c1Cl [HCP, Hexachlorophene]",cytotoxic sensitivity ([ATP] IC50) of LUHMES and/or dLUHMES relative to the other cell lines,LUHMES and dLUHMES cells,more sensitive than the other cell lines
same,relative cytotoxic sensitivity of LUHMES versus dLUHMES cells,LUHMES and dLUHMES cells,LUHMES cells were more sensitive than dLUHMES cells
same,cytotoxic sensitivity of dSH-SY5Y cells relative to SH-SY5Y cells,[1],slightly more sensitive
same,increase of Caspase 3/7 activity in dNSC,[2],but not dNSC
same,relative cytotoxic sensitivity of NSC versus dNSC,NSC and dNSC cells,NSC more sensitive than dNSC

# Reference: publication PMC5094908 (Journal of applied toxicology : JAT, 2016)
